Values of other authors in patent US20110112099A1, “THERAPEUTIC AGENT FOR CANCER RESISTANT TO PROTEASE INHIBITOR” (KYOWA HAKKO KIRIN CO., LTD., priority 2007, published 2011).

System: breast cancer expressing Her2
Conditions: clinical; cited from earlier work

Substance: trastuzumab
- Share of patients in whom a single medication is effective: 30-40%
